In patent US20070213270A1, “PEPTIDE YY FORMULATIONS HAVING INCREASED STABILITY AND RESISTANCE TO MICROBIAL AGENTS” (priority 2004, published 2007):

How the values were obtained:
[1] = in vivo
[2] = test system: normal, human-derived tracheal/bronchial epithelial cells (EpiAirway™ Tissue Model); assay: Tissue permeation assay (EpiAirway tissue model, PYY 3-36 EIA); assay type: in vitro ADME
Procedure: The experimental procedures for the in vitro tissue studies are described below. The cell line MatTek Corp. (Ashland, Mass.) was the source of normal, human-derived tracheal/bronchial epithelial cells (EpiAirwayTM Tissue Model). The cells were provided as inserts grown to confluent on Millipore […] filters comprised of transparent hydrophilic Teflon (PTFE). The membranes were cultured in 1 mL basal media (phenol red-free and hydrocortisone-free Dulbecco's Modified Eagle's Medium (DMEM)) at 37° C. with 5% CO2 for 24-48 hours before use. Inserts were feed for each day of recovery. Same media was used during testing. Each tissue insert was placed in an individual well containing 1 mL of basal media. On the apical surface of the inserts, 100 ul of test formulation was applied, and the samples were placed on a shaker ( 100 rpm) for 120 min at 37° C. The underlying culture media samples was stored at 2-8° C. until needed. Transepithelial electrical resistance (TEER) was measured before and after the 2-h incubation. Following the incubation, the cell inserts were analyzed for cell viability via the mitochondrial dehydrogenase (MDH) assay. […] (Belmont, Calif.). Samples are diluted appropriate with assay buffer that is provided with the kit. The protocol that comes with the kits will be used.

In the case of `CC[C@H](C)[C@H](N)C(=O)N[C@@H](CCCCN)C(=O)N1CCC[C@H]1C(=O)N[C@@H](CCC(=O)O)C(=O)N[C@@H](C)C(=O)N1CCC[C@H]1C(=O)NCC(=O)N[C@@H](CCC(=O)O)C(=O)N[C@@H](CC(=O)O)C(=O)N[C@@H](C)C(=O)N[C@@H](CO)C(=O)N1CCC[C@H]1C(=O)N[C@@H](CCC(=O)O)C(=O)N[C@@H](CCC(=O)O)C(=O)N[C@@H](CC(C)C)C(=O)N[C@@H](CC(N)=O)C(=O)N[C@@H](CCCN=C(N)N)C(=O)N[C@@H](Cc1ccc(O)cc1)C(=O)N[C@@H](Cc1ccc(O)cc1)C(=O)N[C@@H](C)C(=O)N[C@@H](CO)C(=O)N[C@@H](CC(C)C)C(=O)N[C@@H](CCCN=C(N)N)C(=O)N[C@@H](Cc1cnc[nH]1)C(=O)N[C@@H](Cc1ccc(O)cc1)C(=O)N[C@@H](CC(C)C)C(=O)N[C@@H](CC(N)=O)C(=O)N[C@@H](CC(C)C)C(=O)N[C@H](C(=O)N[C@H](C(=O)N[C@@H](CCCN=C(N)N)C(=O)N[C@@H](CCC(N)=O)C(=O)N[C@@H](CCCN=C(N)N)C(=O)N[C@@H](Cc1ccc(O)cc1)C(N)=O)[C@@H](C)O)C(C)C` [PYY3-36, PYY(3-36)], the “level of PYY peptide reached” value [1] is reported as “post-prandial physiological levels”, the “effect of change in tonicifier upon in vitro performance” value [2] is reported as “no significant effect” and the “effect of osmolarity upon in vitro performance” value [2] is reported as “significant impact”. The “effect of change in pH upon in vitro performance” value ([2]; pH 3.8) was “no impact”.
